The subject of data set [1] is HT-29 cells. Nature of the data set: Inhibition test for sphere formation assay of cancer cells. The conditions noted are these: for IC50: read-out: Sphere IC50 value (concentration for 50% inhibition of cell proliferation), sphere culture (ultra-low attachment, serum-free), 4 days, CellTiter-Glo; for activity for inhibiting cell proliferation in the sphere culture condition: summary in words.

Chains of the proteins cited; added tags and fusions are not shown.
UniProt Q12809, whole entry: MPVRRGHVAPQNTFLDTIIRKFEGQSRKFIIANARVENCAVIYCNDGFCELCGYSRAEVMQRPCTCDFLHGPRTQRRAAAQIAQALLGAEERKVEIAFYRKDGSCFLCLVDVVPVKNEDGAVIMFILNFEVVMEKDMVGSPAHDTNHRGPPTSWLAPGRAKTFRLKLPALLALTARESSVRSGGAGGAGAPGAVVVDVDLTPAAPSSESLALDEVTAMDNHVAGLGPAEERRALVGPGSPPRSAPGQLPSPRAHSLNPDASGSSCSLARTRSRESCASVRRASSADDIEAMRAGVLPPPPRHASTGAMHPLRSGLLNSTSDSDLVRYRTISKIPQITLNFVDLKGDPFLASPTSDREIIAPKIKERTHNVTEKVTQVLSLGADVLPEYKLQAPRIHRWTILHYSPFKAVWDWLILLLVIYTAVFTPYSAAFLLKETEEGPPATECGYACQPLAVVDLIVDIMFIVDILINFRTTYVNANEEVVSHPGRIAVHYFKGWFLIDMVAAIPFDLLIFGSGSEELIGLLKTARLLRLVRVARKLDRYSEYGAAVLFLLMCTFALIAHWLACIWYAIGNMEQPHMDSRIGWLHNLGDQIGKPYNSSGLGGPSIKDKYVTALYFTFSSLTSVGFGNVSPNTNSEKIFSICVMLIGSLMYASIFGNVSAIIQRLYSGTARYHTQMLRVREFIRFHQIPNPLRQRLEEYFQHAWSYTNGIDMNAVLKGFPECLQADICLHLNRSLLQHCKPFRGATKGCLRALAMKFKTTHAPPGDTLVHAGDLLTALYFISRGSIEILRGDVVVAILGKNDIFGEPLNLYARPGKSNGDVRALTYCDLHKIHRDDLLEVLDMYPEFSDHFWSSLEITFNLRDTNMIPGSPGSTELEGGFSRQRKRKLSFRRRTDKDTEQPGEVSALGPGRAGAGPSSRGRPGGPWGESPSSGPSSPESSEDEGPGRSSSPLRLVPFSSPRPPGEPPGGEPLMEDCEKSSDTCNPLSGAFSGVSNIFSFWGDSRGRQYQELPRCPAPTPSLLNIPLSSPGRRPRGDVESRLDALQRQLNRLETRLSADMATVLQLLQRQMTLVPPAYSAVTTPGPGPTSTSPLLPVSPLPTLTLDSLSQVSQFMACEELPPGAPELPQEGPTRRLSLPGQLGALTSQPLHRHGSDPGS

The target of data set [2] is hERG (Homo sapiens (Human), UniProt Q12809). Nature of the data set: Test for evaluating hERG inhibition (QPatch HT, CHO cell strain stably expressing hERG). Format: cell-based. The conditions noted are these: for hERG/HT-29: hERG IC50 (Test 2) divided by HT-29 sphere IC50 (Test 1); for deviation between the concentration of inhibiting 50% cell proliferation and the concentration of inhibiting 50% hERG current: summary in words of hERG/HT-29. For orientation: hERG is a cardiac potassium channel; its block is linked to QT prolongation.

Molecules are shown by their SMILES.

Turning to `CC1(C)Oc2ccc(Cl)cc2C2OCC3(CCN(C(=O)Cn4cnc(CO)c4)CC3)CC21` (stereo not shown), in data set [1], the IC50 is 1200 nM.
Consider `Cc1nc[nH]c1CN1CCC2(CC1)COC1c3ccc(Cl)cc3OC(C)(C)C1C2` (single isomer, unassigned), for which, in data set [1], the IC50 was determined as 40 nM.
Regarding `Cn1cncc1CN1CCC2(CC1)COC1c3ccc(Cl)cc3OC(C)(C)C1C2` (stereo not shown), in data set [2], the hERG/HT-29 is on record as over 140; the “deviation between the concentration of inhibiting 50% cell proliferation and the concentration of inhibiting 50% hERG current” value was “good deviation”. For the same compound, in data set [1], the IC50 was under 10 nM and the “activity for inhibiting cell proliferation in the sphere culture condition” value is reported as “potent activity”.
As to `Cn1cncc1CN1CCC2(CC1)COC1c3cc(Cl)ccc3OC(C)(C)C1C2` (stereo not shown), in data set [2], the hERG/HT-29 is reported as over 80; the “deviation between the concentration of inhibiting 50% cell proliferation and the concentration of inhibiting 50% hERG current” value is on record as “good deviation”. In data set [1], the IC50 was under 10 nM and the “activity for inhibiting cell proliferation in the sphere culture condition” value is recorded as “potent activity”.
